# Laboratory results: patent US20170253562A1, “Nampt Inhibitors” (AbbVie Inc., priority 2011, published 2017)
# By UniProt entry, the sequences of proteins in these tests, tags left out. Where a name states a change or a piece, a line headed by the entry shows the natural chain unless it says otherwise.
# UniProt P43490: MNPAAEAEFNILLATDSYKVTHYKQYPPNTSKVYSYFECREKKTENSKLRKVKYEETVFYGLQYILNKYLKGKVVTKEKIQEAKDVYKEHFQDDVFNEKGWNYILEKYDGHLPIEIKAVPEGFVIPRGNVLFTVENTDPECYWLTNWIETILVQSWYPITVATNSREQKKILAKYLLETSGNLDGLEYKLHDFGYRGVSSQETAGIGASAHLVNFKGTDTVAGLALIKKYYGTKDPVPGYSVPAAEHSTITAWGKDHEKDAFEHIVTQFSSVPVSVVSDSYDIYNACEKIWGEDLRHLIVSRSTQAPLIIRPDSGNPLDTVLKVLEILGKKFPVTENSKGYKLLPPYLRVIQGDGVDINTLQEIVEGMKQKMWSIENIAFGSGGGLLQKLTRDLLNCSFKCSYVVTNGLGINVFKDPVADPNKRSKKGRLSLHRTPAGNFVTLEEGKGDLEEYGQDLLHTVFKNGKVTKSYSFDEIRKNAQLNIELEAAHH
# Target: recombinant, human, C-terminally-His tagged NAMPT (Homo sapiens, UniProt P43490)
# Assay: Time-Resolved Fluorescence Resonance Energy Transfer (TR-FRET) binding assay of NAMPT
compound,measurement,value
"CC(O)CNC(=O)c1ccc(NC(=O)N2Cc3ccccc3C2)cc1 (stereo not shown) [Example 2, N-{4-[(2-hydroxypropyl)carbamoyl]phenyl}-1,3-dihydro-2H-isoindole-2-carboxamide]",IC50,26.4 nM
